In patent publication US6291496A, “Treating cancers associated with overexpression of class I family of receptor tyrosine kinases” (priority 1999, dated 2001):

Key:
Format in all cases: in vivo, human
[1] = tested on: HER-2/neu positive breast cancer metastasized to lung and liver; test: Example III: breast cancer metastasized to lung and liver; conditions: patient, oral 5 mg/kg twice daily
Experimental: After three months, the PPARγ ligand administration is continued in combination regimen with Taxol® at a dose of 175 mg/m^2 administered intravenously every three weeks.

[2] = tested on: HER-2/neu positive breast cancer metastasized to bone; test: Example IV: breast cancer metastasized to bone; conditions: patient after failure of prior chemotherapy, oral 5 mg/kg twice daily plus HERCEPTIN
Experimental: After 90 days, oral cyclophosphamide at a dose of 3 mg/kg/day and doxorubicin administered intravenously weekly at a dose of 20 mg/m^2, are added to the drug regimen.

[3] = tested on: head and neck carcinoma where EGFR is overexpressed; test: Example VII: head and neck carcinoma; conditions: after the 12 weeks of CETUXIMAB and cisplatin, oral 5 mg/kg twice daily for 12 weeks
Experimental: Concurrently cisplatin is infused every four weeks at 60 mg/m^2.

[4] = tested on: Stage IV EGFR positive breast cancer tumors; test: Example VIII: breast cancer with Stage IV EGFR positive tumors; conditions: oral 5 mg/kg twice daily in combination with CETUXIMAB and Taxol
[5] = tested on: HER-2/neu positive colon cancer; test: Example V: after resection of colon cancer; conditions: patient, oral 5 mg/kg twice daily for five years after resection
[6] = tested on: EGFR positive breast cancer; test: Example IX: adjuvant therapy after mastectomy; conditions: patient, oral 5 mg/kg twice daily for five years after mastectomy
[7] = tested on: non-small cell lung carcinoma where EGFR is overexpressed; test: Example VI: non-small cell lung carcinoma metastasized to liver; conditions: patient, oral 5 mg/kg twice daily
Experimental: After one month, PPARγ ligand administration is continued in combination with infusion of cisplatin every four weeks at 60 mg/m^2 for 12 more weeks.

**Q.** Which tumor burden [1] does the source give for `Cc1c(C)c2c(c(C)c1O)CCC(C)(COc1ccc(CC3SC(=O)NC3=O)cc1)O2` (stereo not drawn) [troglitazone] here?
**A.** Its tumor burden is “reduced tumor burden”.

**Q.** And the tumor burden [2]?
**A.** Its tumor burden is “reduced tumor burden”.

**Q.** What about the tumor burden [3] of the same compound?
**A.** The tumor burden was “further reduced tumor burden”.

**Q.** And the tumor burden [4]?
**A.** Its tumor burden is “reduced tumor burden”.

**Q.** What about the “recurrence of colon cancer” value [5] of the same compound?
**A.** Its value is “Recurrence of colon cancer does not occur”.

**Q.** And the “recurrence of breast cancer” value [6]?
**A.** The value was “Recurrence of breast cancer dose not occur”.

**Q.** And the tumor burden [7]?
**A.** The tumor burden was “reduced tumor burden”.

**Q.** What does the source list for `COC(=O)c1ccccc1N[C@@H](Cc1ccc(OCCc2nc(-c3ccccc3)oc2C)cc1)C(=O)O` [GW7845, (S)-2-(1-carboxy-2-{4-[2-(5-methyl-2-phenyloxazol-4-yl)ethoxy]phenyl}ethylamino)benzoic acid methyl ester]?
**A.** tumor burden [1]: reduced tumor burden; tumor burden [4]: reduced tumor burden; recurrence of colon cancer [5]: Recurrence of colon cancer does not occur; recurrence of breast cancer [6]: Recurrence of breast cancer dose not occur

**Q.** For `CCc1ccc(CCOc2ccc(CC3SC(=O)NC3=O)cc2)nc1` (stereo not drawn) [pioglitazone], which tumor burden [1] is on record?
**A.** The tumor burden was “reduced tumor burden”.

**Q.** What about the tumor burden [2] of the same compound?
**A.** The tumor burden was “reduced tumor burden”.

**Q.** And the tumor burden [3]?
**A.** The tumor burden was “further reduced tumor burden”.

**Q.** And the tumor burden [4]?
**A.** Its tumor burden is “reduced tumor burden”.

**Q.** What about the “recurrence of colon cancer” value [5] of the same compound?
**A.** The value was “Recurrence of colon cancer does not occur”.

**Q.** What about the “recurrence of breast cancer” value [6] of the same compound?
**A.** Its value is “Recurrence of breast cancer dose not occur”.

**Q.** And the tumor burden [7]?
**A.** Its tumor burden is “reduced tumor burden”.
